Drawing on PubChem BioAssay AID602274 (Sanford-Burnham Center for Chemical Genomics, 2012), this text covers survival enhancement for three compounds.

This is a selection; strong and weak results do not stand in their true shares. Calls of active or inactive are those of the source. Rule as the data show it: active = survival enhancement above about 18%; inactive = the rest.

This experiment in a line: compounds raising survival of dissociated human iPSCs – cell-based, ATPlite luminescence, primary screen (AID 602274).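 Also: cells exposed to compounds for 16 hours before the ATP read.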 The conditions noted are these: hiPSC single-cell survival, at 20 µM, active compounds read high, 100% = ROCK inhibitor wells, 0% = DMSO. On the technique in general: In ATP-based viability assays light output follows the ATP content of the culture.
For the compound `CCC(=O)N(c1ccccc1)C1(COC)CCN(CCn2nnn(CC)c2=O)CC1`, the survival enhancement was inactive: 0.9%. Then `CCC(=O)N(c1ccccc1)C1(COC)CCN(CCc2cccs2)CC1`, with inactive: -2.8%; and `CCC(=O)N(c1ccccc1)C1CCN(CCc2ccccc2)CC1`, with inactive: 0.5%.
